5 compounds from patent US8974768B2, “Azo compounds reducing formation and toxicity of amyloid beta aggregation intermediates” (Max-Delbrueck-Centrum fuer Molekulare Medizin, priority 2010, dated 2015) can be followed below.

The test deals with secreted Aβ monomers and dimers.
On to `CN(C)c1ccc(N=Nc2ccc(N=C=S)cc2)cc1` [Compound 10, 4-((4-isothiocyanatophenyl)diazenyl)-N,N-dimethylaniline], for which the Dimer reduction entry is given as “++”. Consider `Cc1cc(N=Nc2ccccc2C)ccc1N` [Compound 26, 2-methyl-4-(o-tolyldiazenyl)aniline], for which the Dimer reduction entry is “toxic”. Consider `CN(C)c1ccc(N=Nc2ccccc2)cc1` [Compound 21, N,N-dimethyl-4-(phenyldiazenyl)aniline], for which the Dimer reduction result is recorded as “++”. As for `O=[N+]([O-])c1ccc(N=Nc2ccc(Nc3ccccc3)cc2)cc1` [Compound 2, 4-((4-nitrophenyl)diazenyl)-N-phenylaniline], the entry is “++”; as for `c1ccc(N=Nc2ccccc2)cc1` [compound 33, 1,2-diphenyldiazene, reference compound], “−”.
